# According to ChEMBL document CHEMBL5325425, “Design, synthesis and biological evaluation of pyrrolopyrimidine derivatives as novel and selective positive modulator of the small conductance Ca2+-activated K+ channels” (Eur J Med Chem, 2023):
# Protein sequences, listed by entry. Tags and fused reporters are not part of them.
# UniProt O15554, whole entry: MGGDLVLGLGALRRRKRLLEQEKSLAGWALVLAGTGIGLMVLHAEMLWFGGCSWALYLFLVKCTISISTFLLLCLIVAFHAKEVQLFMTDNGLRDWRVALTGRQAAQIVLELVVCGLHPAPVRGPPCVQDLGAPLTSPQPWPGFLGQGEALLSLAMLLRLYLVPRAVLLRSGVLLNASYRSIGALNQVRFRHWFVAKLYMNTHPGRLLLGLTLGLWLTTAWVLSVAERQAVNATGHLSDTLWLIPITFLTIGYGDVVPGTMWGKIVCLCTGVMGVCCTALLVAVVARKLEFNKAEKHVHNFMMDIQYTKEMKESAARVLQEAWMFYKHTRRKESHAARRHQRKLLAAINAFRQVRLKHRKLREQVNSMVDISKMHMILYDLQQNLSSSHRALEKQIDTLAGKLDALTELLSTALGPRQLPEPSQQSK
# UniProt Q92952, whole entry: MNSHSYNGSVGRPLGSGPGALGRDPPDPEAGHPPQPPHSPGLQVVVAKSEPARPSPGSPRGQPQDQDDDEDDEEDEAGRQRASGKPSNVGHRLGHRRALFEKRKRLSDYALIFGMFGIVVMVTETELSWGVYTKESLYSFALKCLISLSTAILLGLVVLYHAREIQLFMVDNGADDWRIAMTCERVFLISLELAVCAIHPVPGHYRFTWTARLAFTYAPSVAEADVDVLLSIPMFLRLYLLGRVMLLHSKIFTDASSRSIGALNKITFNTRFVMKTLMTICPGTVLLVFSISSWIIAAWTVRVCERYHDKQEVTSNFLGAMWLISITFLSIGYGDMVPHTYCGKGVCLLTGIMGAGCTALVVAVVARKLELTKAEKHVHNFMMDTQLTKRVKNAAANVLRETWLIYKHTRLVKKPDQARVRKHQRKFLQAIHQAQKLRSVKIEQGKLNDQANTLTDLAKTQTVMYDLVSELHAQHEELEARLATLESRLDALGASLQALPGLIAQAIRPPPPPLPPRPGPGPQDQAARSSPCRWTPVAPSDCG
# UniProt Q9H2S1, whole entry: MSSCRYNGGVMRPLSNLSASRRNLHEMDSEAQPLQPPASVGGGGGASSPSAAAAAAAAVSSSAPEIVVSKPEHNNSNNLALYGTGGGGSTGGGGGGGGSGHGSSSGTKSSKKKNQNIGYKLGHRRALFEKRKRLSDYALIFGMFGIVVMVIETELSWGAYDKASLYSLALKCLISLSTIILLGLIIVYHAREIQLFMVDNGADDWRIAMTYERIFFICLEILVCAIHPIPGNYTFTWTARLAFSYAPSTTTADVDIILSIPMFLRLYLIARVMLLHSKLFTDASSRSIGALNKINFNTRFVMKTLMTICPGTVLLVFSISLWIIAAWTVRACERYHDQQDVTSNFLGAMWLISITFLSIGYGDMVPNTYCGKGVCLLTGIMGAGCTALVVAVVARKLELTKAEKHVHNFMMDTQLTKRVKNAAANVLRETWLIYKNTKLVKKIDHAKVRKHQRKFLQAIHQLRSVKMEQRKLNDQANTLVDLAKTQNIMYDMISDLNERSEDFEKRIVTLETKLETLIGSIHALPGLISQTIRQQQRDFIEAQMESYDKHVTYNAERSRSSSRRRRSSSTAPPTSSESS
# Assays:
# Type in all cases: cell-based
# [1] = molecular target: Intermediate conductance calcium-activated potassium channel protein 4 (Homo sapiens) (UniProt O15554); experiment: Activation of IK (unknown origin) expressed in HEK293 cells coexpressing CaM/GFP at 100 uM in presence of Ca2+ by electrophysiological method
# [2] = molecular target: T1, Small conductance calcium-activated potassium channel protein 1 (Homo sapiens, UniProt Q92952); experiment: Activation of SK1 (unknown origin) expressed in HEK293 cells coexpressing CaM/GFP at 100 uM in presence of Ca2+ by electrophysiological method
# [3] = molecular target: Intermediate conductance calcium-activated potassium channel protein 4 (Homo sapiens) (UniProt O15554); experiment: Activation of IK (unknown origin) expressed in HEK293 cells coexpressing CaM/GFP in presence of Ca2+ by electrophysiological method relative to control
# [4] = molecular target: T1, Small conductance calcium-activated potassium channel protein 1; experiment: Activation of SK1 (unknown origin) expressed in HEK293 cells coexpressing CaM/GFP in presence of Ca2+ by electrophysiological method relative to control
# [5] = molecular target: Small conductance calcium-activated potassium channel protein 2 (Homo sapiens, UniProt Q9H2S1); experiment: Positive modulation of SK2 in HEK293 cells in presence of Ca2+ by patch-clamp method relative to control; settings: filed as activator
Activity [1],Activity [2],Efficacy [3] [%],Efficacy [4] [%],Efficacy [5] [%],SMILES
inactive,inactive,31.9,9.28,–,Cc1ccn(-c2nc(Nc3ccc(F)cc3)c3ccn(C)c3n2)n1
–,–,–,–,90,Cc1cc(C)n(-c2nc(Nc3ccc(Cl)cc3)c3ncn(C)c3n2)n1

# Calls of active or inactive are those of the source. No cut-off for these calls is given here.
